From ChEMBL document CHEMBL1136798, “Synthesis and pharmacological characterization of a series of geometrically constrained 5-HT(2A/2C) receptor ligands” (J Med Chem, 2003)

Sequences of proteins named here, by UniProt entry; tags and fusion partners are left off.
UniProt P14842, whole entry: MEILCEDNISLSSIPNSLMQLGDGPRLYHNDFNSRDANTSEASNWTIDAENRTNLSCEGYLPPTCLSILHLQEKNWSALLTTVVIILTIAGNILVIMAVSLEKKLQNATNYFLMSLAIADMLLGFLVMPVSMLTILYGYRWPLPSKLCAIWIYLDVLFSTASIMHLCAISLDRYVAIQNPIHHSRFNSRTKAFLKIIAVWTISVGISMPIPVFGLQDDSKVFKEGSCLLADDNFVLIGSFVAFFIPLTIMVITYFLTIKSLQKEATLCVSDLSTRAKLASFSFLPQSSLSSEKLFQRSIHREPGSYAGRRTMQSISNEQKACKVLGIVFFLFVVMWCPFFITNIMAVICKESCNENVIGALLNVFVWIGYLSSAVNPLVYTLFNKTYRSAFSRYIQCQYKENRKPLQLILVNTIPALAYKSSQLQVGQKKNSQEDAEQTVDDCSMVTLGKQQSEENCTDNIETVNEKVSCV

Molecular target: 5-hydroxytryptamine receptor 2A (Rattus norvegicus, UniProt P14842)
Test: Tested for its ability to activate phospholipase C by quantification of IP3 at cloned rat 5-hydroxytryptamine 2A receptor
Summary of the method: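 Rat 5-HT2A-expressing cells at 70% confluency were labelled for 18-20 h with 1.0 µCi/mL [3H]-myo-inositol. They were pretreated for 15 min with 10 µM pargyline/10 mM LiCl, then exposed to drug for 30 min at 37 °C. Formic acid stopped the reaction. [3H]inositol phosphates were separated on Dowex-1 columns. Efficacy is expressed relative to serotonin.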

In the case of `CCN(CC)C(=O)[C@@H]1C=C2c3cccc4[nH]cc(c34)C[C@H]2N(C)C1` [LYSERGIDE], the EC50 is reported as 9.8 nM.
